Protein sequences, listed by entry. Tags and fused reporters are not part of them.
UniProt P0DMS8, whole entry: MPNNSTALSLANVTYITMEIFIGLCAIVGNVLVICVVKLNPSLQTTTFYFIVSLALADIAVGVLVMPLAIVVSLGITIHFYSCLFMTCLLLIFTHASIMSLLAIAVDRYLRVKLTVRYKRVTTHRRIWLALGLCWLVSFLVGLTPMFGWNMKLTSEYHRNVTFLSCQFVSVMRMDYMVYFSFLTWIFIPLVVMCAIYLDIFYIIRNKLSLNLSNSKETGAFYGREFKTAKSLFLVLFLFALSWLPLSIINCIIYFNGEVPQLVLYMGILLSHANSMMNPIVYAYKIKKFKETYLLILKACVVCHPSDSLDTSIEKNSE

In publication PMC3456874, “Fragment Screening at Adenosine-A3 Receptors in Living Cells Using a Fluorescence-Based Binding Assay” (Chemistry & Biology, 2012):

Target: human A3AR (Homo sapiens, UniProt P0DMS8)
Assay: High-content fluorescent ligand (CA200645) competition binding assay in live CHO CRE-SPAP cells expressing the A3AR
Settings: for A3 pKi (Table S3): mean ± s.e.m; for % of CA200645 binding (% DMSO control): compounds tested at 1 mM, control 1% DMSO and 25 nM CA200645, asterisk = selected for further screening; for pKi at the adenosine A3 receptor (Table S2): mean ± s.e.m from 3 separate experiments

Structure (SMILES)	% of CA200645 binding (% DMSO control)	pKi at the adenosine A3 receptor (Table S2)	A3 pKi (Table S3)
O=C(Nc1ccccc1-c1nc2ccccc2[nH]1)c1ccccc1			6.27 ± 0.17
CNCc1ccc(-c2nccs2)cc1	32.45%	4.61 ± 0.18	
CCCCCCNc1ccccc1-c1nc2ccccc2[nH]1			6.27 ± 0.05
CC(=O)c1csc(-c2ccc(OC(F)(F)F)cc2)n1	27.22%	4.86 ± 0.50	
OCc1cccc(-c2cncnc2)c1	47.06%	> 3	

Now from value to molecule, other results behind:

% of CA200645 binding (% DMSO control)	pKi at the adenosine A3 receptor (Table S2)	Structure (SMILES)	A3 pKi (Table S3)
21.54%	5.47 ± 0.09	Cc1nc(-c2ccccc2)ncc1CO	
28.44%	4.78 ± 0.34	CCOC(=O)c1sc(-c2ccccc2)nc1C	
24.90%	5.02 ± 0.28	Nc1nc(-c2ccccc2)ns1	
38.60%	> 3	CCOC(=O)c1sc(C)nc1-c1ccccc1	
21.34%	4.47 ± 0.50	Cc1nc(-c2ccccc2)sc1CO	
